Measured values as given in US9334242B2, “Compounds for treatment of cancer” (GTX, INC., priority 2010, dated 2016).

Test system: T1, tubulin colchicine binding site
T1 construct: […]; other: SPA
Assay: [3H]-colchicine competition-binding scintillation proximity assay
Settings: SPA

competition for the tubulin colchicine binding site (in words): competitively bound
Compound: COc1ccc(-c2nc(C(=O)c3ccc(F)cc3)c[nH]2)cc1 [12cb, (4-fluorophenyl)(2-(4-methoxyphenyl)-1H-imidazol-4-yl)methanone]
